In ChEMBL document CHEMBL1151743, “Dual inhibitors of matrix metalloproteinases and carbonic anhydrases: iminodiacetyl-based hydroxamate-benzenesulfonamide conjugates” (J Med Chem, 2008) one finds IC50 data, which are given here for one compound.

The chains behind the UniProt entries cited, without tags or fusion partners. Where a name states a change or a piece, a line headed by the entry shows the natural chain unless it says otherwise.
UniProt P22894: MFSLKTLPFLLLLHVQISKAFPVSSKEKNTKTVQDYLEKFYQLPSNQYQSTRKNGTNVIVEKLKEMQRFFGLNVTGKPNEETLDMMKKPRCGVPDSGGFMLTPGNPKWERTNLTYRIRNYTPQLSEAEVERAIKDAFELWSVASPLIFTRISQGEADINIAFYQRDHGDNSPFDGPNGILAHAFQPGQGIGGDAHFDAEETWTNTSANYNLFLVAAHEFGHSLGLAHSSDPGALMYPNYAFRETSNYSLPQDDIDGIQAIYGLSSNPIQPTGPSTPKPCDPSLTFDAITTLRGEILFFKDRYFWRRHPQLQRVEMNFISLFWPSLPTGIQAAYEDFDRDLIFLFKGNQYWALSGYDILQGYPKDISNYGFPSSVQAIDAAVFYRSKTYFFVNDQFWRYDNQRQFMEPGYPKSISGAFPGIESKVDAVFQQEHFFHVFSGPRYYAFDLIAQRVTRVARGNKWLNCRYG

For orientation: IC50 means the concentration that inhibits the measured activity by half.

The structures appear in SMILES notation.

One experiment deals with Neutrophil collagenase (Homo sapiens, UniProt P22894). Description: Inhibition of MMP8.
A further experiment deals with T1, Interstitial collagenase (Homo sapiens, UniProt P03956).
T1 sequence (P03956 whole entry): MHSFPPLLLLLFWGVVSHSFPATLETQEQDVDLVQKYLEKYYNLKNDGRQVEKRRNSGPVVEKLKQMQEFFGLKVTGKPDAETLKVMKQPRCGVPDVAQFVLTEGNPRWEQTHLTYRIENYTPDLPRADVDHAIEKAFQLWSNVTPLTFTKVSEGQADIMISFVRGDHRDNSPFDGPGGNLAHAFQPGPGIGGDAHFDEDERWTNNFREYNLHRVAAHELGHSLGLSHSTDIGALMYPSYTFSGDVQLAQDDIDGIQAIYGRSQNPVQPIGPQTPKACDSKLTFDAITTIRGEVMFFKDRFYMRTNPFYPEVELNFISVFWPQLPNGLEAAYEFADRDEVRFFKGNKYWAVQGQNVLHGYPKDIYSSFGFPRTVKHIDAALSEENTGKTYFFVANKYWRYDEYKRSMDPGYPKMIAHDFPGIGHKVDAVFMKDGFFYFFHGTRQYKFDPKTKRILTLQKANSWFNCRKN
Kind of experiment: Inhibition of MMP1.

With `COc1ccc(S(=O)(=O)N(Cc2cccnc2)[C@@H](C(=O)NO)C(C)C)cc1` [CGS-27023A], the IC50 at Neutrophil collagenase was found to be 7.7 nM; against Interstitial collagenase, 56.3 nM.
